Entries after “also recorded” stand apart in the source; their conditions may differ.
Tested on: HAUSP TRAF-like domain (residues 1–206)
Assay: in vitro competition assay using gel filtration chromatography, MDM2 versus p53
Format: binding
Details: 10-fold molar equivalence of p53 (351–382) preincubated with HAUSP 5 min at 4 °C, then one molar equivalence of MDM2 (208–289) 45 min at 4 °C, SDS-PAGE/Coomassie
Description: To test this hypothesis, we performed an in vitro competition assay using gel filtration chromatography.
Size-exclusion chromatography (gel filtration), using a Superdex-200 column (10/30, Amersham Pharmacia Biotech, Piscataway, New Jersey, United States), was employed to carry out all the in vitro binding assays. Proteins subjected to binding tests were incubated at 4 °C for at least 45 min to allow equilibrium to be reached. The flow rate was 0.5 ml/min, and the buffer contained 25 mM Tris (pH 8.0), 100 mM NaCl, and 2 mM DTT. All fractions were collected at 0.5 ml each. Aliquots of relevant fractions were mixed with SDS sample buffer and subjected to SDS-polyacrylamide gel electrophoresis. The proteins were visualized by Coomassie Blue staining. The column was calibrated with molecular-mass standards.

With “MDM2: RING-finger E3 ubiquitin ligase; here MDM2 fragments in competition with p53” the “complex formation with HAUSP in competition” value was “preferentially forms a stable HAUSP–MDM2 complex even in the presence of excess p53; also recorded: out-competed excess p53; also recorded: efficiently out-competes excess p53”.
